Laboratory results reported in patent US10086000B2, “Tricyclic compounds as inhibitors of mutant IDH enzymes” (Merck Sharp & Dohme Corp., priority 2014, dated 2018).

Amino acid sequences for entries named in this document (tags omitted).
UniProt O75874, whole entry R132H: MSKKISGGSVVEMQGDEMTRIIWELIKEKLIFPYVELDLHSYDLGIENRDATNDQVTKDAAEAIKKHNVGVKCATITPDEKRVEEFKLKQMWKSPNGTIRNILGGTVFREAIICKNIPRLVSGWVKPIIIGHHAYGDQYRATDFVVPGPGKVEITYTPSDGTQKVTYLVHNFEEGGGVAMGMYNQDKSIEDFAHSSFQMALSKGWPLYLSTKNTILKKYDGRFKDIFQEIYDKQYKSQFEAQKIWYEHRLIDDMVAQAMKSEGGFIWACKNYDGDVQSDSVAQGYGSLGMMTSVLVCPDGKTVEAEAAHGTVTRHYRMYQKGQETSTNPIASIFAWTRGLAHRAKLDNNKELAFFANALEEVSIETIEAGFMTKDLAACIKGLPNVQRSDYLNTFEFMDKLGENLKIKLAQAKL

Biological target: R132H mutant IDH1 enzyme (Homo sapiens (Human), UniProt O75874, R132H)
Assay: R132H IDH1 Enzymatic Assay
Assay type: biochemical
Details: R132H mutant IDH1 enzyme 1.5 nM final; luminescence (Kinase-GLO) readout

Row | SMILES | IC50
1 | O=C(N1Cc2cccnc2Nc2ccc(N3CCOCC3)cc21)C12CC3CC(F)(CC(F)(C3)C1)C2 [Example 32, 6-[(3,5-difluorotricyclo[3.3.1.1~3,7~]dec-1-yl)carbonyl]-8-morpholin-4-yl-6,11-dihydro-5H-pyrido[2,3-b][1,5]benzodiazepine] | 97 nM
2 | CC(C)(O)c1ccc2c(c1)N(C(=O)C1CCc3ccccc3CC1)Cc1cccnc1N2 [Example 116, 2-[6-(6,7,8,9-Tetrahydro-5H-benzo[7]annulen-7-ylcarbonyl)-6,11-dihydro-5H-pyrido[2,3-b][1,5]benzodiazepin-8-yl]propan-2-ol] | 5 nM
3 | O=C([C@H]1CC[C@H]2OCCC[C@@H]2C1)N1Cc2cccnc2Nc2ccc(N3CCOCC3)cc21 [Example 50, 8-morpholin-4-yl-6-[(4aR,6S,8aR)-octahydro-2H-chromen-6-ylcarbonyl]-6,11-dihydro-5H-pyrido[2,3-b][1,5]benzodiazepine] | 2480 nM
4 | O=C([C@@H]1CC[C@@H]2OCCC[C@@H]2C1)N1Cc2cccnc2Nc2ccc(N3CCOCC3)cc21 [Example 51, 8-morpholin-4-yl-6-[(4aR,6R,8aS)-octahydro-2H-chromen-6-ylcarbonyl]-6,11-dihydro-5H-pyrido[2,3-b][1,5]benzodiazepine] | 667 nM
5 | O=C([C@H]1COc2ccccc2O1)N1Cc2cccnc2Nc2ccc(CCC(F)(F)F)cc21 [Example 127, (R)-(2,3-Dihydrobenzo[b][1,4]dioxin-2-yl)(8-(3,3,3-trifluoropropyl)-5,11-dihydro-6H-benzo[b]pyrido[2,3-e][1,4]diazepin-6-yl)methanone] | 120 nM
6 | O=C([C@H]1CC[C@H]2OCC[C@H]2C1)N1Cc2cccnc2Nc2ccc(N3CCOCC3)cc21 [Example 37, 8-morpholin-4-yl-6-[(3aR,5S,7aR)-octahydro-1-benzofuran-5-ylcarbonyl]-6,11-dihydro-5H-pyrido[2,3-b][1,5]benzodiazepine] | 2360 nM
7 | O=C([C@@H]1CC[C@H]2CCC[C@H]21)N1Cc2cccnc2Nc2ccc(N3CCOCC3)cc21 [Example 73, 8-morpholin-4-yl-6-[(1R,3aR,6aR)-octahydropentalen-1-ylcarbonyl]-6,11-dihydro-5H-pyrido[2,3-b][1,5]benzodiazepine] | 700 nM
8 | O=C(C1COc2ccccc2O1)N1Cc2cccnc2Nc2ccc(N3CCOCC3)cc21 (stereo not drawn) [Example 40, 6-(2,3-dihydro-1,4-benzodioxin-2-ylcarbonyl)-8-morpholin-4-yl-6,11-dihydro-5H-pyrido[2,3-b][1,5]benzodiazepine] | 171 nM
9 | CO[C@H]1C2CC3CC1C[C@@](C(=O)N1Cc4cccnc4Nc4ccc(N5CCOCC5)cc41)(C3)C2 [Example 58, 6-{[(1s,4r)-4-methoxytricyclo[3.3.1.1~3,7~]dec-1-yl]carbonyl}-8-morpholin-4-yl-6,11-dihydro-5H-pyrido[2,3-b][1,5]benzodiazepine] | 9930 nM
10 | CO[C@H]1C2CC3CC1C[C@](C(=O)N1Cc4cccnc4Nc4ccc(N5CCOCC5)cc41)(C3)C2 [Example 57, 6-{[(1r,4s)-4-methoxytricyclo[3.3.1.1~3,7~]dec-1-yl]carbonyl}-8-morpholin-4-yl-6,11-dihydro-5H-pyrido[2,3-b][1,5]benzodiazepine] | 424 nM
11 | O=C([C@H]1COc2ccccc2O1)N1Cc2cccnc2Nc2ccc(N3CCOCC3)cc21 [Example 42, 6-[(2R)-2,3-dihydro-1,4-benzodioxin-2-ylcarbonyl]-8-morpholin-4-yl-6,11-dihydro-5H-pyrido[2,3-b][1,5]benzodiazepine] | 87 nM
12 | CC(C)[C@@H]1COC(=O)N1c1ccc2c(c1)N(C(=O)[C@]13C[C@H]4C[C@H](C[C@H](C4)C1)C3)Cc1cccnc1N2 [Example 119, (4R)-4-(1-Methylethyl)-3-{6-[(3S,5S,7S)-tricyclo[3.3.1.1˜3,7˜]dec-1-ylcarbonyl]-6,11-dihydro-5H-pyrido[2,3-b][1,5]benzodiazepin-8-yl}-1,3-oxazolidin-2-one] | 22 nM
13 | O=C(C1CCCc2ncccc2C1)N1Cc2cccnc2Nc2ccccc21 (single isomer, unassigned) [Example 113, 6-(6,7,8,9-Tetrahydro-5H-cyclohepta[b]pyridin-6-ylcarbonyl)-6,11-dihydro-5H-pyrido[2,3-b][1,5]benzodiazepine] | 16400 nM
14 | O=C([C@@H]1CC[C@@H]2CCC[C@@H]21)N1Cc2cccnc2Nc2ccc(N3CCOCC3)cc21 (single isomer, unassigned) [Example 72] | 400 nM
15 | C[C@H]1C[C@H]2C[C@@H](C(=O)N3Cc4cccnc4Nc4ccc(N5CCOCC5)cc43)CC[C@H]2O1 [Example 56, 6-{[(2S,3aR,5S,7aR)-2-methyloctahydro-1-benzofuran-5-yl]carbonyl}-8-morpholin-4-yl-6,11-dihydro-5H-pyrido[2,3-b][1,5]benzodiazepine] | 351 nM
16 | O=C([C@H]1COc2cc(Cl)ccc2O1)N1Cc2cccnc2Nc2ccc(N3CCOCC3)cc21 [Example 81, 6-{[(2R)-6-chloro-2,3-dihydro-1,4-benzodioxin-2-yl]carbonyl}-8-morpholin-4-yl-6,11-dihydro-5H-pyrido[2,3-b][1,5]benzodiazepine] | 18 nM
17 | CCO[C@@H]1CC[C@H]2[C@@H]1CC[C@H]2C(=O)N1Cc2cccnc2Nc2ccc(N3C[C@@H]4C[C@H]3CO4)cc21 (racemic) [Example 85, 6-{[(1R,3aS,4R,6aS)-4-ethoxyoctahydropentalen-1-yl]carbonyl}-8-[(1S,4S)-2-oxa-5-azabicyclo[2.2.1]hept-5-yl]-6,11-dihydro-5H-pyrido[2,3-b][1,5]benzodiazepine] | 64 nM

Row | SMILES | IC50
18 | CN(C)c1ccc2c(n1)N(C(=O)C1CCc3ccccc3CC1)Cc1cccnc1N2 [Example 117, N,N-Dimethyl-11-(6,7,8,9-tetrahydro-5H-benzo[7]annulen-7-ylcarbonyl)-10,11-dihydro-5H-dipyrido[2,3-b:2′,3′-e][1,4]diazepin-2-amine] | 22 nM
19 | CCO[C@H]1CC[C@H]2[C@@H]1CC[C@H]2C(=O)N1Cc2cccnc2Nc2ccc(N3CCOCC3)cc21 (racemic) [Example 77, 6-{[(1R,3aS,4S,6aS)-4-ethoxyoctahydropentalen-1-yl]carbonyl}-8-morpholin-4-yl-6,11-dihydro-5H-pyrido[2,3-b][1,5]benzodiazepine] | 60 nM
20 | O=C(C1COc2ccccc2C1)N1Cc2cccnc2Nc2ccc(N3CCOCC3)cc21 (stereo not drawn) [Example 97, 6-(3,4-dihydro-2H-chromen-3-ylcarbonyl)-8-morpholin-4-yl-6,11-dihydro-5H-pyrido[2,3-b][1,5]benzodiazepine] | 141 nM
21 | O=C(N1Cc2cccnc2Nc2ccccc21)C12CC(c3ccccc3)(C1)C2 [Example 7, 6-[(3-phenylbicyclo[1.1.1]pent-1-yl)carbonyl]-6,11-dihydro-5H-pyrido[2,3-b][1,5]benzodiazepine] | 1860 nM
22 | O=C(N1CCC1)C12CCC(C(=O)N3Cc4cccnc4Nc4ccccc43)(CC1)CC2 [Example 93, 6-{[4-(azetidin-1-ylcarbonyl)bicyclo[2.2.2]oct-1-yl]carbonyl}-6,11-dihydro-5H-pyrido[2,3-b][1,5]benzodiazepine] | 12200 nM
23 | O=C(C1CCc2ccccc2C1)N1Cc2cccnc2Nc2ccc(N3CCOCC3)cc21 (stereo not drawn) [Example 95, 8-Morpholin-4-yl-6-(1,2,3,4-tetrahydronaphthalen-2-ylcarbonyl)-6,11-dihydro-5H-pyrido[2,3-b][1,5]benzodiazepine] | 91 nM
24 | N#CC12C=CC(C(=O)N3Cc4cccnc4Nc4ccccc43)(CC1)CC2 [Example 26, 4-(5,11-dihydro-6H-pyrido[2,3-b][1,5]benzodiazepin-6-ylcarbonyl)bicyclo[2.2.2]oct-2-ene-1-carbonitrile] | 860 nM
25 | Cc1ncc(-c2ccc3c(c2)N(C(=O)C2CCc4ccccc4CC2)Cc2cccnc2N3)n1C [Example 100, 8-(1,2-dimethyl-1H-imidazol-5-yl)-6-(6,7,8,9-tetrahydro-5H-benzo[7]annulen-7-ylcarbonyl)-6,11-dihydro-5H-pyrido[2,3-b][1,5]benzodiazepine] | 3 nM
26 | O=C(C1CC2(CCC2)C1)N1Cc2cccnc2Nc2ccc(N3CCOCC3)cc21 [Example 10, 8-morpholin-4-yl-6-(spiro[3.3]hept-2-ylcarbonyl)-6,11-dihydro-5H-pyrido[2,3-b][1,5]benzodiazepine] | 212 nM
27 | CCCCC[C@]12CC[C@](C(=O)N3Cc4cccnc4Nc4ccccc43)(CC1)CC2 [Example 28, 6-[(4-pentylbicyclo[2.2.2]oct-1-yl)carbonyl]-6,11-dihydro-5H-pyrido[2,3-b][1,5]benzodiazepine] | 563 nM
28 | O=C([C@H]1COc2ccccc2O1)N1Cc2cccnc2Nc2ccc(C(F)(F)F)cc21 [Example 128, (R)-(2,3-Dihydrobenzo[b][1,4]dioxin-2-yl)(8-(trifluoromethyl)-5,11-dihydro-6H-benzo[b]pyrido[2,3-e][1,4]diazepin-6-yl)methanone] | 170 nM
29 | COC1CC2CCC1CC2C(=O)N1Cc2cccnc2Nc2ccc(N3CCOCC3)cc21 (stereo not drawn) [Example 61, 6-[(5-methoxybicyclo[2.2.2]oct-2-yl)carbonyl]-8-morpholin-4-yl-6,11-dihydro-5H-pyrido[2,3-b][1,5]benzodiazepine] | 4060 nM
30 | CO[C@@H]1CC[C@@H]2[C@H]1CC[C@@H]2C(=O)N1Cc2cccnc2Nc2ccc(N3CC4CCC(C3)O4)cc21 (single isomer, unassigned) [Example 83] | 48 nM
31 | O=C(C1C[C@H]2C[C@@H]1CCC2O)N1Cc2cccnc2Nc2ccccc21 (stereo partly drawn) [Example 15, (1R,5S)-6-(5,11-dihydro-6H-pyrido[2,3-b][1,5]benzodiazepin-6-ylcarbonyl)bicyclo[3.2.1]octan-2-ol] | 26400 nM
32 | CC(C)(C#N)c1ccc2c(c1)N(C(=O)C1Cc3ccccc3C1)Cc1cccnc1N2 [Example 13, 2-[6-(2,3-dihydro-1H-inden-2-ylcarbonyl)-6,11-dihydro-5H-pyrido[2,3-b][1,5]benzodiazepin-8-yl]-2-methylpropanenitrile] | 3 nM
33 | O=C(N1CC(F)(F)C1)C12CCC(C(=O)N3Cc4cccnc4Nc4ccccc43)(CC1)CC2 [Example 91, 6-({4-[(3,3-difluoroazetidin-1-yl)carbonyl]bicyclo[2.2.2]oct-1-yl}carbonyl)-6,11-dihydro-5H-pyrido[2,3-b][1,5]benzodiazepine] | 5790 nM
